# Data from US20240294879A1, “STEM CELL DIFFERENTIATION AND POLYMERS” (VERTEX PHARMACEUTICALS INCORPORATED, priority 2021, published 2024).
# System: PDX1-positive, NKX6.1-positive cells
# Test: Flow cytometry, PDX1-positive, NKX6.1-positive cells at Stage 4
# Assay type: cell-based, human
# Settings: Stage 4, flow cytometry, first experiment
# Protocol: Version A protocol is a 6-stage stepwise protocol. With Version A protocol, stem cells were treated with reagents in the following consecutive orders during the first five stages: Stage 1 (S1): Activin-A for 3 days and also CHIR99021 for the first 24 hr; Stage 2 (S2): KGF for 3 days; Stage 3 (S3): KGF, PDBU, Sant-1, retinoic acid (RA), Activin A, and Thiazovivin for 2 days, and also DMH-1 for the first day; Stage 4 (S4): KGF, Sant-1, Thiazovivin, Activin A, and RA for 6 days; Stage 5 (S5): XXI, Alk5i, GC-1, LDN-193189, Thiazovivin, Staurosporine, and DZNEP for 7 days, and also RA, Sant-1, and Betacellulin for the first 2 days; and Stage 6 (S6): HSA, ZnSO4, L-glutamic acid, formate, L-carnitine, taurine, acetate, beta-hydroxybutyrate, and biotin for 7-11 days, and also Alk5i, GC-1, LDN-193189, thiazovivin, staurosporine and DZNEP for the first four days. Throughout the differentiation stages from S1 to S6, HSA was supplemented to the culture medium: about 0.05% from S1 to S5, and 0.05% for the first three days in S6 and then increased to 1% for the remainder of S6.
# In one experiment, PVA materials that have different hydrolyzation levels: 87-89%, 87-90%, and 99%, were used to replace HSA used in Version A (control). About 0.5% PVA was used from S1-S5, and PVA was not included in S6. […]
substance,measurement,value
human serum albumin [HSA],"percentage of PDX1-positive, NKX6.1-positive cells",70.3%
